Test results published in ChEMBL document CHEMBL1146080, “Novel, achiral 1,3,4-benzotriazepine analogues of 1,4-benzodiazepine-based CCK(2) antagonists that display high selectivity over CCK(1) receptors” (J Med Chem, 2006).

Target: T1, Gastrin/cholecystokinin type B receptor (Rattus norvegicus, UniProt P30553)
T1 sequence (P30553 whole entry): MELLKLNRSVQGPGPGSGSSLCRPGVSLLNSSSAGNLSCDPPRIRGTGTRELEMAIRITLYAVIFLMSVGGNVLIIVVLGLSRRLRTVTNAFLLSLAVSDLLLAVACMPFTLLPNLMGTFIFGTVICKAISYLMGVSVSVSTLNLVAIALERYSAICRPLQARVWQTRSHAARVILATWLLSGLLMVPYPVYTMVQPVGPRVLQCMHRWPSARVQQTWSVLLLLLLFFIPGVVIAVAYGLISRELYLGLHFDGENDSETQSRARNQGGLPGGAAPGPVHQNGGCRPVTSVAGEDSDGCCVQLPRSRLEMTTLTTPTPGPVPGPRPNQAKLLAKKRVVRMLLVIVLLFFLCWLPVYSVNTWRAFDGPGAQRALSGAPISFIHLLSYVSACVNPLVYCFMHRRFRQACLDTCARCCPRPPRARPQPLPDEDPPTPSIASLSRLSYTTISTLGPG
Assay: Affinity for CCK2 receptor assessed by inhibition of pentagastrin-stimulated acid secretion in perfused rat stomach
Type: functional, tissue-based
Conditions: read-out: pA2 (converted)

Question: CNc1cccc(NC(=O)CN2N=C(C3CCCCC3)c3ccccc3N(CC(=O)C(C)(C)C)C2=O)c1 was tested. Which Kb did it give?
Answer: Its Kb is 1.32 nM.
